Reference: patent US20040197858

In the case of purified α-thrombin derived from plasma, the Activation of Protein C (TM+, thrombomodulin present): Km (Protein C) is reported as 5.5 µM, the Activation of Protein C (TM+, thrombomodulin present): kcat (Protein C) is reported as 1.43 s⁻¹ and the Activation of Protein C (TM+, thrombomodulin present): kcat/Km (Protein C) is reported as 258000 M⁻¹ s⁻¹. The Activation of Protein C (TM-): Km (Protein C) was 16.3 µM, the Activation of Protein C (TM-): kcat (Protein C) was 0.142 s⁻¹ and the Activation of Protein C (TM-): kcat/Km (Protein C) was 8670 M⁻¹ s⁻¹. It also gave a Conversion of fibrinogen into fibrin: kcat/Km for FpA (fibrinogen) of 1.06e+07 M⁻¹ s⁻¹.

Substance purified recombinant α-thrombin has an Activation of Protein C (TM+, thrombomodulin present): Km (Protein C) of 6.2 µM, an Activation of Protein C (TM+, thrombomodulin present): kcat (Protein C) of 1.44 s⁻¹ and an Activation of Protein C (TM+, thrombomodulin present): kcat/Km (Protein C) of 233000 M⁻¹ s⁻¹. The Activation of Protein C (TM-): Km (Protein C) was 15.7 µM, the Activation of Protein C (TM-): kcat (Protein C) was 0.152 s⁻¹ and the Activation of Protein C (TM-): kcat/Km (Protein C) was 9670 M⁻¹ s⁻¹. For the same substance, the Conversion of fibrinogen into fibrin: kcat/Km for FpA (fibrinogen) was 1.09e+07 M⁻¹ s⁻¹.
